{
  "source": "patent US20250130225A1",
  "about": "“SUBSTRATES FOR IMAGING GLUCOCEREBROSIDASE ACTIVITY” (SIMON FRASER UNIVERSITY, priority 2021, published 2025)",
  "target": "T1, GCase (Homo sapiens, UniProt P04062)",
  "T1 construct": "High content imaging of SK-N-SH cells incubated for 2 h; endogenous in cells; host or cells: SK-N-SH",
  "T1 sequence (P04062 40-536)": "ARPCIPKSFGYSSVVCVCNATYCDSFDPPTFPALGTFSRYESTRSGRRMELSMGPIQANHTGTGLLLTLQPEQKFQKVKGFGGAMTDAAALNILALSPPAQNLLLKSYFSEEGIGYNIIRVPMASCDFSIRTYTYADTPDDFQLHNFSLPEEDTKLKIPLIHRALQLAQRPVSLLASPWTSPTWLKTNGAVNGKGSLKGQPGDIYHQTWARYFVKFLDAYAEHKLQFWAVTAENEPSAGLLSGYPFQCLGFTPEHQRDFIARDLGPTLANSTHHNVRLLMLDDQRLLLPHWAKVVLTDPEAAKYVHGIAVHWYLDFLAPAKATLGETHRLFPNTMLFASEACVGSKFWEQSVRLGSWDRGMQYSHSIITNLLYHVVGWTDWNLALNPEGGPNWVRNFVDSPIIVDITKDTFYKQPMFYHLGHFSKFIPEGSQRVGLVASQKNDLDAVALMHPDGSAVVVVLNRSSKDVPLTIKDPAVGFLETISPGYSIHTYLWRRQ",
  "experiment": "IC50 of GCase inhibitor in fixed SK-N-SH cells read with substrate 4",
  "format": "cell-based",
  "conditions": "10 μM substrate 4, fixed SK-N-SH cells; compared with live cells",
  "data": [
    {"molecule": "O[C@H]1[C@H](O)CNC[C@@H]1C(F)F", "note": "[AT3375, (3R,4R,5S)-5-(difluoromethyl)piperidine-3,4-diol]", "values": [
      {"measurement": "IC50 value in fixed cells", "value": "in good agreement with the value measured using substrate 4 in live SK-N-SH cells"}
    ]}
  ]
}
